A short description of the series: Stationary and time-resolved absorption and emission spectroscopy (photophysics). In kind it is physicochemical. The text has this:
Details of the stationary and time-resolved absorption and emission spectroscopy procedures used for the mechanistic studies are given in Supplementary Section 3.3.

Like-named read-outs stand apart in the source and are kept apart here.

This note sets out measurements from article PMC12669049, “Energy-transfer photoproximity labelling in live cells using an organic cofactor” (Nature Chemistry, 2025).

In the case of Riboflavin tetraacetate [RTA], the λmax is recorded as 450 nm. Regarding MeO-thioxanthone [2b], the λmax (Supplementary Fig. 4) was determined as 409 nm.
